Chains of the proteins cited; added tags and fusions are not shown.
UniProt P27487, whole entry: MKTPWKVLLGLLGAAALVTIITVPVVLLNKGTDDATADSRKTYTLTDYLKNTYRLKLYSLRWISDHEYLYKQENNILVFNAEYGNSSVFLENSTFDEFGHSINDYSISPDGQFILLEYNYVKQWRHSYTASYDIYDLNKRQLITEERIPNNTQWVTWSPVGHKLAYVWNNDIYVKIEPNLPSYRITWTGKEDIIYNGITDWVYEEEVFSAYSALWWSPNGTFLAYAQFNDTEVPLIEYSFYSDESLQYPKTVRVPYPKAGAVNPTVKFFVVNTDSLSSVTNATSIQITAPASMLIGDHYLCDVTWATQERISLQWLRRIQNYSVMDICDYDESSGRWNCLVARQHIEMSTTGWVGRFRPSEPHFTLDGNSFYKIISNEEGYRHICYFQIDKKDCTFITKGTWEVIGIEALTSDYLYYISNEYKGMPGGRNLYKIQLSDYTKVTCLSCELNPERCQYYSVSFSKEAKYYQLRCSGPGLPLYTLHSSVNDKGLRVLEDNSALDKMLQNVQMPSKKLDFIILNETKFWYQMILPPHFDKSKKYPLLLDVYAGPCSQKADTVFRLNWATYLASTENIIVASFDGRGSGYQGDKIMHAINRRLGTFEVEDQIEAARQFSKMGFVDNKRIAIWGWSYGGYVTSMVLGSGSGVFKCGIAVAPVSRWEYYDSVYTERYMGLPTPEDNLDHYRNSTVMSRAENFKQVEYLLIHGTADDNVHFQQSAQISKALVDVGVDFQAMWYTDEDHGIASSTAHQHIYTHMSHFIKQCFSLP

According to patent publication US9962420B2, “Compositions and methods for treating diabetes, fatty liver, cardiopathies, insulin resistance, carbohydrate and fat metabolism” (VALBIOTIS, priority 2014, dated 2018):

Molecular target: DPP-IV human recombinant expressed in SF9 cells (Homo sapiens, UniProt P27487)
Test: Test of inhibition of DPP-IV
Type: biochemical

% of inhibition DPP-IV (concentration of sample set at 250 μg/mL): 89.3%
% of inhibition DPP-IV (concentration of sample set at 1.25 mg/mL): 100%
SMILES: CC[C@H](C)[C@H](N)C(=O)N1CCC[C@H]1C(=O)N[C@H](C(=O)O)[C@@H](C)CC [Diprotin A, diprotin A]
